{
  "source": "ChEMBL document CHEMBL1132351",
  "about": "“Synthesis, in vitro pharmacology, and molecular modeling of very potent tacrine-huperzine A hybrids as acetylcholinesterase inhibitors of potential interest for the treatment of Alzheimer's disease” (J Med Chem, 1999)",
  "target": "Acetylcholinesterase (Bos taurus, UniProt P23795)",
  "data": [
    {"smiles": "CCCC1=CC2Cc3nc4ccccc4c(N)c3C(C1)C2", "note": "(configuration not stated)", "values": [
      {"measurement": "IC50", "result": 431, "unit": "nM"}
    ]},
    {"smiles": "CCCCC1=CC2Cc3nc4ccccc4c(N)c3C(C1)C2", "note": "(configuration not stated)", "values": [
      {"measurement": "IC50", "result": 280, "unit": "nM"}
    ]}
  ]
}
